Tested on: AtlE
Assay: Ligand binding by soaking of AtlE crystals and X-ray structure determination
Details: native crystals soaked with 10 mM solution of the ligands

| Compound | binding to AtlE in crystal complex |
| --- | --- |
| CC(=O)NC1C(O)OC(CO)C(O)C1OC(C)C(=O)NC(C)C(=O)NC(CCC(=O)O)C(=O)O [MurP, NAM-ALA-D-GLU] | binds to AtlE structure equivalently to that observed in the NAG-NAM AtlE complex |
| CC(=O)N[C@@H]1[C@@H](O[C@H](C)C(=O)O)[C@H](O[C@@H]2O[C@H](CO)[C@@H](O)[C@H](O)[C@H]2NC(C)=O)[C@@H](CO)O[C@@H]1O [NAG-NAM, 2-acetamido-4-O-(2-acetamido-2-deoxy-β-d-glucopyranosyl)-3-O-[(R)-1-carboxyethyl]-2-deoxy-α-d-glucopyranose] | only a single molecule of disaccharide was bound to the AtlE active site |

Source: patent US10428320B2, “Crystal structure of Staphylococcus aureus Autolysin E, method of producing the crystal and its use in screening methods” (J. Stefan Institute, priority 2015, dated 2019)
